In PubChem BioAssay AID1224905 (ICCB-Longwood Screening Facility, Harvard Medical School, 2016):
Screen size: about 210,000 compounds; about 880 (0.42%) were called active. The sample as a whole holds a higher share of actives than the screen did. Values without a mark were called inactive.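 Rule for the calls: active = replicate mean at 85% of control or lower with very high polarization wells dropped (limit read from the data); inactive = the rest.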

Chains of the proteins cited; added tags and fusions are not shown.
UniProt P08753, whole entry, looked up: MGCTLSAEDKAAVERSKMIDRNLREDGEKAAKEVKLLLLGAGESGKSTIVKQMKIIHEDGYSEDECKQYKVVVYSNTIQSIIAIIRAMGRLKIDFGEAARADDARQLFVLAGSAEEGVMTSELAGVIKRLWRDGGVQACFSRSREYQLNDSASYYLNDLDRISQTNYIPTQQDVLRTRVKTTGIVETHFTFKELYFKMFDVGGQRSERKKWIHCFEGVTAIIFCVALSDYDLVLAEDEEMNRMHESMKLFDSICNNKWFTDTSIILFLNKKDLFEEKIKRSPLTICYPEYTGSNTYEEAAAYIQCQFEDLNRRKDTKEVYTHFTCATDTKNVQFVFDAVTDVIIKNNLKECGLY

Each compound was assayed against Guanine nucleotide-binding protein G(i) subunit alpha-3 (Rattus norvegicus) (UniProt P08753) (assay: disruptors of GIV-Galphai3 protein-protein interaction – biochemical, fluorescence polarization, FITC-GIV GBA peptide, rat Galphai3, primary screen (AID 1224905;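 note: lower values mean more displacement of the GIV peptide from Galpha-i3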)). Settings: Galpha-i3/FITC-GIV peptide fluorescence polarization, 90 min; hits give low values; scaled: aluminum fluoride 0%, vehicle 100%.

SMILES	percent of control (FP)
COc1ccc(S(=O)(=O)Nc2cc(C(=O)O)cnc2N2CCC(Cc3ccccc3)CC2)cc1	102%
COc1ccc(N2C(=O)/C(=C/c3cc(Cl)c(OCC(=O)O)c(Cl)c3)C(=O)NC2=S)cc1	94.6%
COC(=O)COc1ccc(/C=C2\C(=O)NC(=S)N(c3ccc(Br)cc3)C2=O)cc1OC	104%
Cc1ccc(N2C(=O)/C(=C/c3ccc(OCC(=O)O)c(Br)c3)C(=O)NC2=S)cc1	82.1% (active)
Cc1oc(C2CCN(C(=O)Cc3ccsc3)CC2)nc1C(=O)N1CCCC1	99.3%
CC(C)CC(C(=O)Nc1ccc(Cl)cc1)N1C(=O)c2ccccc2C1=O (stereo not given)	108%
CCOC(=O)c1c(NC(=O)C(C)Sc2nnc(CNC(=O)c3cccs3)n2C2CCCCC2)sc2c1CCCC2 (stereo not given)	109%
CC[n+]1c(/C=C/C=C2\N(C)c3ccccc3C2(C)C)n(-c2ccccc2)c2ccc(Cl)cc21	-32.2% (active)
CC[n+]1c(C)n(-c2ccccc2)c2ccc(N)cc21	101%
COc1ccccc1CNC(=O)C1CCCN1c1nn2c(=O)cc(C)nc2s1 (stereo not given)	96.8%
O=C(/C=C/c1ccccc1)Nc1cc(C(=O)N2CCc3ccccc3C2)ccc1N1CC2CC(C1)c1cccc(=O)n1C2 (stereo not given)	108%
CCN(CC)c1cc(NC2CCCCC2)c2c3c(onc13)-c1ccccc1C2=O	-7.19% (active)
CCNc1cc(Nc2ccccc2)c2c3c(onc13)-c1ccccc1C2=O	104%
CCOC(=O)N1CCN(c2cc(Nc3c(C)cc(C)cc3C)c3c4c(onc24)-c2ccccc2C3=O)CC1	140%
CC1CCN(S(=O)(=O)c2ccc3nn(CC(=O)OC(C)C)c(=O)n3c2)CC1	103%
COc1ccccc1-c1c(C(F)(F)F)oc2c(CN3CCN(C)CC3)c(O)ccc2c1=O	102%
Cc1nn(CCC(=O)NC2CCCC2)c(=O)c2nn(-c3ccccc3)c(C)c12	98.5%
CC(=O)Nc1ccc(NS(=O)(=O)c2cc(S(=O)(=O)Nc3ccc(NC(C)=O)cc3)c3cccc4c3c2NC4=O)cc1	108%
CC(C)c1ccc(NC(=O)c2ccc3c(O)c(S(=O)(=O)c4ccccc4)c(=O)[nH]c3c2)cc1	98.9%
CC(=O)Nc1ccc(Nc2c3c4c(cccc4[nH]c2=O)C(=O)c2ccccc2-3)cc1	60.9% (active)
CCC(C)OC(=O)C1=C(C)NC2=C(C(=O)CC(c3ccc(OC)cc3)C2)C1c1cc2c(cc1[N+](=O)[O-])OCO2 (stereo not given)	103%
CCCCc1nnc2sc(-c3cccc(N(C)C)c3)nn12	97.3%

SMILES	percent of control (FP)
Cc1nn(C)c(C)c1CCN(C)C(=O)Nc1ccc(Br)cc1F	105%
COc1ccc(-n2ccc(=O)c(-c3nc(-c4ccc(F)c(Cl)c4)no3)n2)cc1	102%
Fc1cccc(CNC2=NCCNC23CCCCCC3)c1	112%
COc1ccc(N2CCN(C(C)=C3C(=O)c4ccccc4C3=O)CC2)cc1	97.8%
Cc1cc(N2CCOCC2)ccc1C=C1C(=O)c2ccccc2C1=O	123%
COC1=C(N2CCOCC2)C(=O)c2ccccc2C1=O	81.8% (active)
Nc1nc(=O)n(C2OC(CO)C(O)C2O)cc1Br (stereo not given)	107%
CCN1CCN(Cc2c(O)ccc3c(=O)c(Oc4ccccc4Br)c(C(F)(F)F)oc23)CC1	96.7%
Cn1nc(-c2ccccc2F)c2cc(C(=O)Oc3ccc4cnccc4c3)sc21	109%
N#CC1=C2Sc3ccccc3N2CC1=O	-54.5% (active)
CCOC(=O)c1[nH]c(=O)[nH]c1CSc1nnc(SCc2[nH]c(=O)[nH]c2C(=O)OCC)s1	118%
N#CSc1cc(SC#N)c(N)nc1N	16% (active)
COc1cccc(N/C(SCc2ccccc2C)=C(/C#N)C(=O)NCCc2ccc(OC)c(OC)c2)c1	104%
CCC(C)OC(=O)C1=C(C)NC(=O)NC1c1ccc(OC)c(OCc2ccccc2)c1 (stereo not given)	99.4%
CCOC(=O)c1ccc(N2N=C(C(F)(F)F)/C(=C/c3cc(Cl)c(O)c(OC)c3)C2=O)cc1	109%
CCOc1cc(/C=C2/C(=O)N(c3nn[nH]n3)N=C2C)cc(Cl)c1OCC	74.3% (active)
COc1cc(C=C2C(=O)NC(=O)NC2=O)cc(Cl)c1OCCOc1ccc(C)cc1	103%
O=C(C1CCN(c2nc(-c3ccc(Cl)cc3)no2)CC1)N1CCC(N2CCCCC2)CC1	104%
CCSCCOC(=O)C1=C(C)N(C)C(=O)NC1c1ccccc1OCc1ccccc1 (stereo not given)	104%
c1c2c(cc3sc(N4CCCCC4)nc13)OCCO2	101%
c1csc(Nc2nc3cc4c(cc3s2)OCO4)n1	-40.2% (active)
CC(=O)N(CCN(C)C)c1nc2cc3c(cc2s1)OCO3	100%

SMILES	percent of control (FP)
O=C(CCn1nnc2cc(S(=O)(=O)N3CCCC3)ccc21)N1CCN(c2ccccn2)CC1	112%
Cc1c(CNCCc2ccc(S(N)(=O)=O)cc2)c(C(=O)O)c(C)n1Cc1ccc(F)cc1	98.6%
CC1(C)C2CCC1(CS(=O)(=O)Nc1cc(C(=O)N3CCOCC3)ccc1N1CC3CC(C1)c1cccc(=O)n1C3)C(=O)C2 (stereo not given)	106%
O=C(O)c1cc(N2C(=O)C3C4C=CC(CO)(O4)C3C2=O)ccc1Cl (stereo not given)	103%
CCN(CC)c1ccc2cc(C(=O)NC(C)=O)c(=Nc3ccccc3OC)oc2c1	114%
CCN(CC)c1ccc2cc(C(=O)NC(C)=O)c(=Nc3ccc(F)cc3F)oc2c1	117%
CCN(CC)c1ccc2cc(C(N)=O)/c(=N\NC(=O)c3ccccc3)oc2c1	-46.7% (active)
O=S(=O)(NCc1ccco1)c1ccc(Cl)cc1	101%
Cc1ccc2ccc3cc(C(=O)NC4CCCC4)nc3c2[nH]1	112%
O=C1/C(=C/c2ccc([N+](=O)[O-])cc2)C=C(c2ccccc2)N1c1cccc(Cl)c1Cl	109%
COc1ccccc1N1C(=O)/C(=C/c2ccc(Cl)cc2)C=C1c1ccccc1	78.1% (active)
O=C1/C(=C/c2ccc(Br)cc2)C=C(c2ccccc2)N1c1ccccc1Br	119%
CC(C)NC(=O)C1=CC(c2ccco2)=NS(=O)(=O)N1C	107%
Cc1[nH]c(C(=O)Nc2ccc(F)cc2)c(C)c1S(=O)(=O)N1CCCC1	112%
Cc1cc(C)nc(NS(=O)(=O)c2ccc(NC(=O)C(C)Oc3ccc(Cl)cc3Cl)cc2)n1 (stereo not given)	111%
Cc1[nH]n(-c2ccccc2)c(=O)c1C(c1ccc(C(F)(F)F)cc1)c1c(C)[nH]n(-c2ccccc2)c1=O	92.3%
COc1ccc(C(=O)Oc2ccc(C(c3c(C)[nH]n(-c4ccccc4)c3=O)c3c(C)[nH]n(-c4ccccc4)c3=O)cc2)cc1	111%
CC1=NOC(=O)C1C(c1cccc(Br)c1)c1c(C)[nH]n(-c2ccccc2)c1=O (stereo not given)	48.2% (active)
O=C(CSc1nnc2ccc(C(=O)NCc3ccccc3)cn12)Nc1ccccc1Br	95.4%
CC(=O)Nc1cccc(NC(=O)c2sc3ncn(CC(=O)Nc4ccc(C)c(Cl)c4)c(=O)c3c2C)c1	107%
CC1(C)CC(=O)C2=C(C1)OC1=C(C(=O)CC(C)(C)C1)C2c1ccc(Cl)cc1	107%
Cn1cc(S(=O)(=O)N2CCCCC2)cc1C(=O)N1CCc2ccccc2C1	107%

SMILES	percent of control (FP)
COC(=O)c1ccc(C2C(S(=O)(=O)c3ccccc3)=C(O)C(=O)N2c2cccc(C)c2)cc1 (stereo not given)	101%
CCCCN1C(=O)C(C)(C(=O)N2CCN(C)CC2)Oc2cccnc21 (stereo not given)	101%
O=C(CCN1CCOCC1)Nc1cc(C(=O)Nc2ccc(F)c(F)c2)ccc1N1CC2CC(C1)c1cccc(=O)n1C2 (stereo not given)	115%
CCCCN(C)C(=O)CCn1c(=S)[nH]c2c(oc3ccccc32)c1=O	100%
O=C(O)c1c2ccccc2[nH]c2c1oc1cc(=O)ccc12	81.8% (active)
COC(=O)c1c(C)c(=O)[nH]c2ccccc12	102%
CCn1cc(CCN2CCN(S(=O)(=O)c3ccc4c(c3)CCC4)CC2)c2cccnc21	108%
CCN(Cc1ccccc1)C(=O)Cn1c(=O)n(CCc2ccccc2)c(=O)c2ccccc21	102%
O=S(=O)(c1cc(-c2noc(C3CC3)n2)cs1)N1CCN(c2ccc(Cl)cc2)CC1	104%
COC(=O)Cn1nc2c(-c3nc(-c4ccc(Cl)cc4)no3)cccn2c1=O	53.6% (active)
C=CCNc1ncccc1-c1nc(-c2ccc(Cl)cc2)no1	96.7%
CCOc1ccc(NC(=O)Nc2ccc(Cn3cnc(-c4nc(-c5ccc(Cl)cc5)no4)c3)cc2)cc1	102%
CCCCN(CC)C(=O)c1c[nH]c2ccc(S(=O)(=O)N(C)c3ccc(Br)cc3)cc2c1=O	97.2%
O=C1Nc2ccccc2O/C1=C\c1ccc(C(=O)NCc2ccco2)cc1	103%
CCOc1ccc(NC(=O)Nc2cccc(OCc3cc(=O)n4ccccc4n3)c2)cc1	100%
Cn1c(SCC(N)=O)nnc1-c1cc2ccccc2o1	98.6%
O=c1c(-c2cc3ccccc3o2)[n+]([O-])c2ccccc2n1O	9.86% (active)
COc1ccc2oc(=O)cc(-c3cc4ccccc4o3)c2c1	104%
Cc1ccc([N+](=O)[O-])cc1S(=O)(=O)n1c(SCc2ccccc2F)nc2ccccc21	104%
